This test deals with OVCAR3 cells. The experiment in a line: MTT cytotoxicity, OVCAR3 ovarian cancer cells. Particulars: read-out: IC50 OVCAR3, 24 h incubation.

Results on 1 substance are retold here after PMC9405135, “Tuning the Biological Activity of Camphorimine Complexes through Metal Selection” (Antibiotics, 2022).

Some compounds may have been tested in ways that are not shown here.

Broadly, the IC50 is the point on the concentration scale where inhibition reaches its midpoint. For Gold potassium dicyanide, the IC50 came out at 490 nM.
